# Experimental data published in PMC3479967, “Drug-Drug Interactions Potential of Icariin and Its Intestinal Metabolites via Inhibition of Intestinal UDP-Glucuronosyltransferases” (Evidence-based Complementary and Alternative Medicine : eCAM, 2012).
# Tests used:
# UGT1A10 = biological target: T1, UGT1A10 (Homo sapiens, UniProt Q9HAW8); assay: Inhibition of recombinant UGT1A10 activity (4-MU glucuronidation); conditions: read-out: IC50 for inhibition of UGT1A10 activity; recombinant human UGT1A10, 80 μM 4-MU, mean ± SD
# T1 sequence (Q9HAW8 26-530): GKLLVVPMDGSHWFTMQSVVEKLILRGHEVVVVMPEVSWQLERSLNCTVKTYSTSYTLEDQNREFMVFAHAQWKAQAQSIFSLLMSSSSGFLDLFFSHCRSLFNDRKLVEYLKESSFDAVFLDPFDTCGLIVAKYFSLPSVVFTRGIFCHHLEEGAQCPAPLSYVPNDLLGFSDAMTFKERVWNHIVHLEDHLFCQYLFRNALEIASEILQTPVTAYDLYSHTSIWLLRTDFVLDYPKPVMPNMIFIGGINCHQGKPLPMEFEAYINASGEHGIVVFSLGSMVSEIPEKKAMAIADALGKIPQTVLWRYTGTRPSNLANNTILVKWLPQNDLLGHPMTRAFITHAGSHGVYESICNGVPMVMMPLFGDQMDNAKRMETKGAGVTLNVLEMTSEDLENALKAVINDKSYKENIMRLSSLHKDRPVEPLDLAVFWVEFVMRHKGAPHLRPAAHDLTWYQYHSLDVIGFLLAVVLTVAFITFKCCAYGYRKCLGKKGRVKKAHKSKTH
# Procedure: (§1) A panel of recombinant human UGT supersomes (UGT1A1, UGT1A3, UGT1A4, UGT1A6, UGT1A7, UGT1A8, UGT1A9, UGT1A10, UGT2B4, UGT2B7, UGT2B15, and UGT2B17) expressed in baculovirus-infected insect cells were purchased from BD Gentest Corp. (Woburn, MA, USA).
# (§2) 4-MU, a nonselective substrate of UGTs, was used as probe substrate for all UGTs except UGT1A4. Incubations with each individual enzyme were conducted using conditions previously described. There was a 5 min preincubation step at 37°C before the reaction was started by addition of UDPGA. The incubation mixtures were then centrifuged at 20,500 ×g for 15 min to obtain the supernatant. Aliquots (20 μL) were then analyzed by HPLC. The HPLC system (SHIMADZU, Kyoto, Japan) consisted of an SCL-10A system controller, two LC-10AT pumps, a SIL-10A auto injector, and a SPD-10AVP UV detector. Chromatographic separation was achieved using a Kromasil ODS column (4.6 × 150 mm I.D., 5 μm particle size) at a flow rate of 1 mL/min and UV detection at 316 nm. The mobile phase consisted of 10 mM KH2PO4, pH 2.7 (A) and acetonitrile (B). […]
# (§3) Inhibition data from experiments were graphically represented by Dixon plots. K i values were calculated by nonlinear regression using the equations for competitive inhibition (1), noncompetitive inhibition (2), or mixed inhibition (3), [22] […]
# UGT1A9 = biological target: T2, UGT1A9 (Homo sapiens, UniProt O60656); assay: Inhibition of recombinant UGT1A9 activity (4-MU glucuronidation); conditions: read-out: IC50 for inhibition of UGT1A9 activity; recombinant human UGT1A9, 30 μM 4-MU, mean ± SD
# T2 sequence (O60656 26-530): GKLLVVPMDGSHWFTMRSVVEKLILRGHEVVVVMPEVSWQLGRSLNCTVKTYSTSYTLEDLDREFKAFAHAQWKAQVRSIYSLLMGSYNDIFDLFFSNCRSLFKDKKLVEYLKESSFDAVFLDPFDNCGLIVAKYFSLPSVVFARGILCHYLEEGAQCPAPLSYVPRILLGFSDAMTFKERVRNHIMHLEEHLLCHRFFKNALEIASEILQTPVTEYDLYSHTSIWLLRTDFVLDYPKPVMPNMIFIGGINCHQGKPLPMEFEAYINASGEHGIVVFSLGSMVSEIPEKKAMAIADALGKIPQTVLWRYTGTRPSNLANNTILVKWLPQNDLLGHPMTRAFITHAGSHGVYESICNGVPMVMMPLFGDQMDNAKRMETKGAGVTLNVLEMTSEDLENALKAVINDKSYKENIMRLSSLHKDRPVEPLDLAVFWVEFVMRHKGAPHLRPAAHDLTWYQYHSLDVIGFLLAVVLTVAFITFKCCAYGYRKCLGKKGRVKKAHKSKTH
# Procedure: as §1, §2, §3
substance,measurement,setting,value
Icariside II,IC50,UGT1A10,> 100000 nM
same,IC50,UGT1A9,2400 ± 100 nM
